The results in this text go back to US9034857B2 (Health Research, Inc., priority 2010, dated 2015).

The test deals with growth arrest of stationary phase cells in G0/G1.

Regarding `N[C@@H](CCC(=O)N[C@@H](CS)C(=O)NCC(=O)O)C(=O)O` [GSH, glutathione], the G0/G1 arrest entry (Table 2 summary, stationary phase) was “↑”. The “fraction of cells with visible buds” value (wild type cells, day 3 of medium depletion) is recorded as “fewer visible buds”.

In the case of `CC(=O)N[C@@H](CS)C(=O)O` [N-acetylcysteine], the “frequency of G0/G1 arrest in stationary phase (visible buds)” value is recorded as “absent”.
